Measured values from patent publication US20240123036A1, “COMPOSITIONS AND METHODS FOR THE TREATMENT OF GRAFT VERSUS HOST DISEASE” (VectivBio AG, priority 2021, published 2024).

Test system: cytarabine-induced damage in BALB/cJ female mice

hGLP-2: unmodified hGLP-2, comparator given twice daily at a nominal dose of 0.60 mg/kg combined with cytarabine (HADGSFSDEMNTILDNLAARDFINWLIQTKITD; Glucagon-like peptide 2; UniProt P01275 146-178, looked up) [reference compound]
initial weight loss (combination with cytarabine, apraglutide 0.11 mg/kg, hGLP-2 0.60 mg/kg twice daily): did not decrease
body weight and survival in animals recovering from cytarabine treatment (combination with cytarabine, apraglutide 0.11 mg/kg, hGLP-2 0.60 mg/kg twice daily, FIG. 18): a trend towards increased body weight and survival
polymorphonuclear (PMN) cell count (cytarabine 30 mg/kg twice per day, alone or combined with hGLP-2 or apraglutide, FIG. 20): not reversed
